Here are results for one compound from patent US20150140123A1, “Protein expression analyses for identifying genotoxic compounds” (Merck Patent GmbH, priority 2012, published 2015).

In this data set the test system is HepG2 cells. The conditions noted are these: human, 48 h. As for the experimental part:
HepG2 cells (Order No. HB-8065, Lot. 58483209, ATCC, Manassas, USA) were cultured in DMEM/F12 with L-Glutamine and 15 mM Hepes supplemented with 10% (v/v) FBS, 1% (v/v) penicillin (10 kU/ml)/streptomycin (10 mg/ml) solution, 0.1% (v/v) gentamicin (50 mg/ml), and 1 mM sodium pyruvate at 37° C. and 5% CO2 in culture flasks. Depending on the experiment, an appropriate number of cells were seeded onto plates after detaching of the cells using trypsin and cells were cultured at 37° C. and 5% CO2 for 24 h prior to treatment. All experiments were performed three times with cells of passages 4-20.
Cells were seeded onto black Poly-D-Lysin coated 96-well-plates (BD Biocoat, Franklin Lakes, USA) (0.02×10^6 cells/well) and left 24 h for adherence and then treated with test compounds at a maximum concentration of 1 mM which is recommended by the ICH S2(R1) guideline (EMA, 2011). […]
After treatment, cells were rinsed with PBS (Gibco Invitrogen, Karlsruhe, Germany), and then stained with 10 μM CellTracker Green 5-Chloromethylfluorescein Diacetate (CMFDA) (Invitrogen, Karlsruhe, Germany) in cell culture media for 30 min. […] After an incubation of 1 h, followed by two additional washing steps with 0.05% Tween 20, cells were washed with PBS and finally PBS was added and cells were measured.
Image acquisition was performed on the ArrayScan VTI HCS Reader (Cellomics, Pittsburgh, USA) using a 20× objective. […]

Molecules are shown by their SMILES.

On to `CC[C@H]1OC(=O)[C@H](C)[C@@H](O[C@H]2C[C@@](C)(OC)[C@@H](O)[C@H](C)O2)[C@H](C)[C@@H](O[C@@H]2O[C@H](C)C[C@H](N(C)C)[C@H]2O)[C@](C)(O)C[C@@H](C)C(=O)[C@H](C)[C@@H](O)[C@]1(C)O` [Erythromycin stearate], for which the “CMFDA +S9 highest conc. <50% cytotox. over control” value was 125 µM and the “SCC +S9 highest conc. <50% cytotox. over control” value is 125 µM.
